The source of these data is ChEMBL document CHEMBL1135942, “Synthesis of 5,6-dihydro-11H-benzo[5,6]-cyclohepta[1,2-b]pyridin-11-ylidene)-1-piperidine-N-cyanoguanidine derivatives as inhibitors of ras farnesyl protein transferase” (Bioorg Med Chem Lett, 2002).

pIC50: −log10 of the molar value.

The target in this assay is Protein farnesyltransferase (Homo sapiens, UniProt P49354+P49356). In words: FPT inhibitory activity was determined by the ability to inhibit the transfer of [3H]farnesyl from farnesyl pyrophosphate to H-ras-CLVS. The class given is protein-complex assay.

A word on the pIC50: it is −log10 of the IC50, conventionally taken in molar units.

The compound `COc1ccc(N/C(=N\C#N)N2CCC(=C3c4ccc(Cl)cc4CCc4cc(Br)cnc43)CC2)cc1` gave a pIC50 of 7.37.

Compound `N#CN=C(Nc1cccnc1)N1CCC(=C2c3ccc(Cl)cc3CCc3cc(Br)cnc32)CC1` showed a pIC50 of 7.37.
